Reference: publication doi:10.1101/2023.12.19.572309 (bioRxiv, 2023)

Molecular target: the molecule itself
Test: native gel or EMSA

B1: ATG16L1 (recombinant, within the ATG16L1-(StrepII^2x)ATG5–ATG12 complex) (natural protein)
chain: MSSGLRAADFPRWKRHISEQLRRRDRLQRQAFEEIILQYNKLLEKSDLHSVLAQKLQAEKHDVPNRHEISPGHDGTWNDNQLQEMAQLRIKHQEELTELHKKRGELAQLVIDLNNQMQRKDREMQMNEAKIAECLQTISDLETECLDLRTKLCDLERANQTLKDEYDALQITFTALEGKLRKTTEENQELVTRWMAEKAQEANRLNAENEKDSRRRQARLQKELAEAAKEPLPVEQDDDIEVIVDETSDHTEETSPVRAISRAATKRLSQPAGGLLDSITNIFGRRSVSSFPVPQDNVDTHPGSGKEVRVPATALCVFDAHDGEVNAVQFSPGSRLLATGGMDRRVKLWEVFGEKCEFKGSLSGSNAGITSIEFDSAGSYLLAASNDFASRIWTVDDYRLRHTLTGHSGKVLSAKFLLDNARIVSGSHDRTLKLWDLRSKVCIKTVFAGSSCNDIVCTEQCVMSGHFDKKIRFWDIRSESIVREMELLGKITALDLNPERTELLSCSRDDLLKVIDLRTNAIKQTFSAPGFKCGSDWTRVVFSPDGSYVAAGSAEGSLYIWSVLTGKVEKVLSKQHSSSINAVAWSPSGSHVVSVDKGCKAVLWAQY
stoichiometry N: 2
